Experiments:
TrkB [1] = target: T1, TrkB (Homo sapiens, UniProt Q16620); assay: biochemical
TrkB [2] = target: T1, TrkB; settings: read-out: IC50 for TrkB; cellular proliferation, Ba/F3 cells, MTT
cSRC = cSRC (Homo sapiens, UniProt P12931); assay: biochemical

Amino acid sequences for entries named in this document (tags omitted). Residues count along the entry.
UniProt Q16620, 32-822: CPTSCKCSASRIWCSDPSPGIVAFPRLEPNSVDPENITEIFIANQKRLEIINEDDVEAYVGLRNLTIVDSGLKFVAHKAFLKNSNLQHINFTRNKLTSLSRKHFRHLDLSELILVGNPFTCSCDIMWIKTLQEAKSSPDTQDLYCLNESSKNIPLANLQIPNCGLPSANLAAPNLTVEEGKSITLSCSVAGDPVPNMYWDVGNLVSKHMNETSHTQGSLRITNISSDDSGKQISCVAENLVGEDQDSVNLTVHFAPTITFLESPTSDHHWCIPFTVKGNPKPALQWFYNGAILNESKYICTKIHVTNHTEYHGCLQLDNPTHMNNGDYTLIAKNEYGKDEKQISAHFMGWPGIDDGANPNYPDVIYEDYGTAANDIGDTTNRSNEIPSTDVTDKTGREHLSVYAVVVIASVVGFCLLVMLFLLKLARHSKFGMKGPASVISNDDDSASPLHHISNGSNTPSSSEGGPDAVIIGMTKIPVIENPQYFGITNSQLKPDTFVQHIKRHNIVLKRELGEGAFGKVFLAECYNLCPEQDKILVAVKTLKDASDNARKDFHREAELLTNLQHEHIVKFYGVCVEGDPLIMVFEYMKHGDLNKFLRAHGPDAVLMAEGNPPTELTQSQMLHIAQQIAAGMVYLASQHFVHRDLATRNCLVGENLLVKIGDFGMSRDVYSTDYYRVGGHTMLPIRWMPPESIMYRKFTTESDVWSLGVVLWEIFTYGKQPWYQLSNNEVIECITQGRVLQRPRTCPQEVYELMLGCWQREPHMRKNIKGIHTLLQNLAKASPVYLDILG
UniProt Q16620, 538-822 limits assumed, stated change not applied: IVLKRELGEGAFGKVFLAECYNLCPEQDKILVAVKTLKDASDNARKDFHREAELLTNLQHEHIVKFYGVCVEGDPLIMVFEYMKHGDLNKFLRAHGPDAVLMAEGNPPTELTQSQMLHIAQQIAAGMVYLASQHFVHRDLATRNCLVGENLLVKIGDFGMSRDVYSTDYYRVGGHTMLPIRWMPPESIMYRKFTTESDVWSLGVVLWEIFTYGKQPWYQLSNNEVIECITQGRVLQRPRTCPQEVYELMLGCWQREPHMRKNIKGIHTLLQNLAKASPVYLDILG

Cc1cn(-c2cc(C(=O)Nc3cccc(Nc4ccc5c(c4)NC(=O)/C5=C/c4ccc[nH]4)c3)cc(C(F)(F)F)c2)cn1 [Example 1]
IC50 (TrkB [1]): 14 nM
GI50 (TrkB [2]): 8.2 nM
IC50 (cSRC): 53 nM

From patent US8101608B2, “Compounds and compositions as protein kinase inhibitors” (IRM LLC, a Delware Limited Corporation, priority 2004, dated 2012)
